The values below come from US8637556B2, “Linked Myc-max small molecule inhibitors” (University of Pittsburgh—Of the Commonwealth System of …, priority 2009, dated 2014).

Sequences of proteins named here, by UniProt entry; tags and fusion partners are left off. Residues count along the entry.
UniProt P01106, 368-452 limits assumed: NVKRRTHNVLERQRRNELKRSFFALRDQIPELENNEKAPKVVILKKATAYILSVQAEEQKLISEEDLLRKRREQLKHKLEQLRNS

Assay [1] deals with c-Myc353-437 (monomeric c-Myc bHLH-ZIP) (Homo sapiens, UniProt P01106). In words: Fluorescence polarization titration, c-Myc bHLH-ZIP binding. To be noted: for c-Myc binding affinity (in words): FP; for Kd: read-out: KD (c-Myc affinity, bivalent), Table 1, FP of nitrobenzofurazan moiety, c-Myc353-437. An excerpt: A c-Myc353-437 full-length bHLH-ZIP domain and its truncated version c-Myc390-439 were produced from the c-Myc/pET SKB3 construct, kindly supplied by Dr. S. K. Nair (University of Illinois, Urbana-Champaign), by insertion into the pET151D vector, encoding an N-terminal hexahistidine (6× His), separated by a TEV protease digestion site, with the TOPO® ligation system, and over-expressed in E. coli BL21DE3(pLysS). The 6× His tagged human Max isoform p21, with low homodimerization affinity^70, cloned into the pQE10 vector (Qiagen, Inc.), was over-expressed in E. coli M15(pRep4). Bacterial cultures were grown at 37° C. in LB medium to OD600≈0.8, then induced with 0.5 mM IPTG for 5 hours. Proteins were purified by Ni-agarose chromatography with a pH gradient elution. The 6× His tag of c-MYC353-437 and c-Myc390-439 was cleaved using TEV protease (the TEV protease was expressed in a pET24 vector [courtesy of S. K. Nair] and purified by Ni-agarose chromatography under native conditions). All the proteins were further purified by HPLC and lyophilized. Protein concentrations were determined by measurement of OD280. The synthetic peptide c-Myc363-381 is described in Follis, A. V., Hammoudeh, D. I., Wang, H., Prochownik, E & Metallo, S. J. Structural rationale for the coupled binding and unfolding of the c-Myc oncoprotein by small molecules. Chemistry & Biology 15, 1149-1155 (2008).
Samples were analyzed in a Photon Technology International QuantaMaster fluorimeter (Birmingham, N.J.) equipped with polymer sheet polarizers. Titration experiments were performed upon serial dilution of 1:1 equimolar solution of inhibitor and either c-Myc353-437, c-Myc390-439 or c-Myc363-381 in a 1×PBS buffer (137 mM NaCl, 2.7 mM KCl, 4.3 mM Na2HPO4, 1.4 mM KH2PO4, pH=7.4), 5% DMSO, over concentrations ranging between 200 μM and 1.5 nM. Excitation and emission wavelengths were independently determined for each inhibitor. Reported data represent the average of at least three independent experiments. […]
[formula] where [C]0 represents the total concentration of inhibitor and of c-Myc peptide. The value of KD was determined from the experimental polarization data by fitting to Eq. 2 using KaleidaGraph (Synergy Software, Reading, Pa.) where pol0 is the polarization in the absence of binding and Δpol is the total change in polarization (Park, S. H. & Raines, R. T. Fluorescence polarization assay to quantify protein-protein interactions. Methods in Molecular Biology 261, 161-6 (2004)).
[formula] Due to the very tight binding of some of the tested compounds, it was impossible to perform a full binding titration with an acceptable fluorescence intensity, therefore the polo parameter was experimentally determined from samples of each compound in the absence of c-Myc353-437 at a concentration of 25 μM. […]
On the technique in general: Fluorescence polarisation rises when a labelled molecule tumbles more slowly, as on binding a larger partner.

The test system of assay [2] is HL60 promyelocytic leukemia cells. In words: HL60 cell growth inhibition (MTT assay). It counts as cell-based, human. The following applies: read-out: Growth inhibition HL60, Table 3, third day. In general terms: Tetrazolium assays rely on reduction of a dye to a coloured formazan, in cell work by metabolically active cells.
The subject of assay [3] is Daudi Burkitt lymphoma cells. In words: Burkitt's lymphoma cell growth inhibition (MTT assay). It counts as cell-based, human. The following applies: read-out: Growth inhibition BL, Table 3, third day.
Assay [4] concerns the target c-Myc-Max heterodimer binding to E-Box DNA (Homo sapiens, UniProt P01106). In words: Electrophoretic mobility shift assay (EMSA) of c-Myc-Max DNA binding. To be noted: c-Myc-Max dimer 1 μM, 10 nM E-Box DNA. For orientation: A gel shift assay detects complexes by their altered migration in electrophoresis.

Molecules are shown by their SMILES.

Consider `CCc1ccc(/C=C2\SC(=O)N(CCCCCCNC(=O)c3ccc(Nc4ccc([N+](=O)[O-])c5nonc45)cc3)C2=O)cc1`, for which, in assay [1], the “c-Myc binding affinity (in words)” value was “highest affinity” and the Kd worked out at 0.6 nM. Moreover, the IC50 in assay [2] was 7000 to 9000 nM. In addition, the IC50 in assay [3] lay within 2000 to 4000 nM. Further, the “Disruption of c-Myc-Max DNA (E-Box) binding” value in assay [4] is “Strong disruption of DNA binding”.

`O=C(CNC(=O)c1ccc(Nc2ccc([N+](=O)[O-])c3nonc23)cc1)NCCCCCNC(=O)c1ccc(/C=C2\SC(=S)NC2=O)cc1`: the “c-Myc binding affinity (in words)” value in assay [1] is reported as “considerably reduced binding affinity”.

Regarding `O=C1NC(=S)S/C1=C\c1ccc(C(=O)NCCCCCNC(=O)c2ccccc2Nc2ccc([N+](=O)[O-])c3nonc23)cc1`, the “Disruption of c-Myc-Max DNA (E-Box) binding” value in assay [4] was “Strong disruption of DNA binding”.

For `CCc1ccc(/C=C2\SC(=O)N(CCCCCCNC(=O)CCCCCNC(=O)c3ccc(Nc4ccc([N+](=O)[O-])c5nonc45)cc3)C2=O)cc1`, in assay [1], the Kd is 5 nM.
